Reference: patent EP0584223B1, “NOVEL IMMUNOSUPPRESSIVE COMPOUNDS” (VERTEX PHARMACEUTICALS INCORPORATED, priority 1991, dated 1992)

Protein sequences, listed by entry. Tags and fused reporters are not part of them.
UniProt P62942, whole entry: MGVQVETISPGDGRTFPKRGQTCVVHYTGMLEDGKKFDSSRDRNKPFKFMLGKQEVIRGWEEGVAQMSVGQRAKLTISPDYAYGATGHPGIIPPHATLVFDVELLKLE

Experiments:
FK-506 binding protein = FK-506 binding protein (Homo sapiens, UniProt P62942); assay: Competitive binding assay with [3H]dihydro-FK-506; conditions: binding to FKBP; apparent Kd, competition with [3H]dihydro-FK-506
FKBP = FKBP (Homo sapiens, UniProt P62942); assay: Inhibition of FKBP PPIase (rotamase) activity, chymotrypsin-coupled assay; format: biochemical; conditions: apparent Ki
Description: The inhibition of the PPIase (rotamase) enzyme activity of the FKBP (apparent "Ki" values) can also be measured according to the methods described by either Harding, M.W. et al., Nature 341:758-760 (1989) or Siekierka, J.J. et al., Nature 341:755-757 (1989). The cis-trans isomerization of the […] peptide bond in a model substrate, N-succinyl-Ala-Ala-Pro-Phe-p-nitroanilide, is monitored spectrophotometrically in a coupled assay with chymotrypsin, which releases 4-nitroanilide from the trans form of the substrate. Fischer, G. et al., Nature 337:476-478 (1989). The inhibitory effect of the addition of different concentrations of inhibitor on the extent of the reaction is determined, and analysis of the change in first order rate constant as a function of inhibitor concentration yields an estimate of the apparent Ki value.

Row | SMILES | Kd (FK-506 binding protein) [nM] | Ki (FKBP) [nM]
1 | COc1cc(C(=O)C(=O)N2CCCC[C@H]2C(=O)OC(CCCc2ccccc2)CCc2cccnc2)cc(OC)c1OC (mixture of isomers) [Compound 7, (R and S)-6-Phenyl-1-(3-pyridyl)-3-hexyl (S)-N-(3,4,5-trimethoxyphenylglyoxyl)pipecolate] | 29 | 
2 | COc1cc(C(=O)C(=O)N2CCCC[C@H]2C(=O)OC(CCCc2ccccc2)CCCc2cccnc2)cc(OC)c1OC (mixture of isomers) [Compound 9, (R and S)-1-Phenyl-7-(3-pyridyl)-4-heptyl (S)-N-(3,4,5-trimethoxyphenylglyoxyl)pipecolate] | 4 | 1
